In PMC11574045, “A cofactor-induced repressive type of transcription factor condensation can be induced by synthetic peptides to suppress tumorigenesis” (The EMBO Journal, 2024):

Test system: HEK293FT cells transfected with TF library
Assay: Screening of TF condensates based on fluorescent puncta
Type: cell-based
Details: Figure 1B numerical data; TF library screen, one value per transcriptional factor
Protocol: TF plasmids were automatically added to black-walled 384-well plates at 80 ng per well to reach a final concentration of 1.6 μg/ml. Polyethylenimine (PEI, Sigma) was then added to the plasmid-loaded plates at 240 ng per well (4.8 μg/ml). Subsequently, HEK293FT cells were seeded into the plate at 2000 cells per well. After 60 h, cells were cultured in medium with or without glucose for 12 h, and then fixed with 4% paraformaldehyde (PFA) at room temperature for 30 min. After three washes with PBS, fixed cells were permeabilized with 0.05% Triton X-100 for 15 min. Thereafter, cells were blocked with 5% BSA for 1 h, and then incubated overnight with anti-Flag (Sigma F3165, 1:200) and anti-GAL4 (Abbkine ABP57232, 1:200) primary antibodies at 4 °C. The cells were then gently washed with PBS, followed by being incubated with Alexa Fluor Plus 488 goat anti-mouse IgG secondary antibody (Thermo A32723, 1:400) or Alexa Fluor Plus 488 goat anti-rabbit IgG secondary antibody (Thermo A32731, 1:400) for 1 h. The plates were kept at 4 °C in the dark before being analyzed using an Opera System (Perkin Elmer). Fifty random fields per well were scanned and analyzed using the Columbus Plus Image Data Storage and Analysis System (Perkin Elmer).

B1: IFNB1 (protein, UniProt P01574 22-187, looked up)
Interferon beta: MSYNLLGFLQRSSNFQCQKLLWQLNGRLEYCLKDRMNFDIPEEIKQLQQFQKEDAALTIYEMLQNIFAIFRQDSSSTGWNETIVENLLANVYHQINHLKTVLEEKLEKEDFTRGKLMSSLHLKRYYGRILHYLKAKEYSHCAWTIVRVEILRNFYFINRLTGYLRN
Z score of condensed fraction: -0.3743
